The values below come from ChEMBL document CHEMBL3352657 (J Med Chem, 2014).

The target of this assay is T1, Neurotensin receptor type 2 (Rattus norvegicus) (UniProt Q63384).
T1 sequence (whole entry): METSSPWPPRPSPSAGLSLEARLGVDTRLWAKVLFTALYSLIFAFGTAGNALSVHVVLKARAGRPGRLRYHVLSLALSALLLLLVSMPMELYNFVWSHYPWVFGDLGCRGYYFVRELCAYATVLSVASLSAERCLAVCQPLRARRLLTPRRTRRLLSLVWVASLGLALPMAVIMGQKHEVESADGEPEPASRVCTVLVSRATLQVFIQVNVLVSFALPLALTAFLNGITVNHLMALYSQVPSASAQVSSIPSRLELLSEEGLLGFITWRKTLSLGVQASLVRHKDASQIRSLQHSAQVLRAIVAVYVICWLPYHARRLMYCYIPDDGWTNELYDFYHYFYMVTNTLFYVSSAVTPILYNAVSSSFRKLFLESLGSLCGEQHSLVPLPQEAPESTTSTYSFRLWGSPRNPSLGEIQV
Particulars: CHO-K1, 10 uM.

Where only a bound is given, the exact number is not on record here.

For `Cc1ccc(S(=O)(=O)Nc2ccc3c(ccn3CC(=O)N[C@@H](CC(C)C)C(=O)O)c2)cc1`, the inhibition is more than 50%.
